# Experimental data reported in PMC8164609 (Environmental Science and Pollution Research International, 2021).
# Where “and” joins values, the source holds several entries; their conditions need not be identical. Identical values can stand only once.
# Tested on: MCF-7 cells
# Test: In vitro micronucleus assay for cytokinesis block
# Format: cell-based, human
# Conditions: 24 h; for Micronuclei per 1000 binucleated cells, Replicates: single replicate values
structure (smiles),measurement,setting,value
O=c1c(-c2ccc(O)cc2)coc2cc(O)cc(O)c12 [genistein],"Micronuclei per 1000 binucleated cells, Average",10^−7 M,17 per 1000 binucleated cells
same,"Micronuclei per 1000 binucleated cells, Replicates",10^−7 M,17 per 1000 binucleated cells and 15 per 1000 binucleated cells and 19 per 1000 binucleated cells
same,"Micronuclei per 1000 binucleated cells, Average",10^−8 M,15.33 per 1000 binucleated cells
same,"Micronuclei per 1000 binucleated cells, Replicates",10^−8 M,14 per 1000 binucleated cells and 16 per 1000 binucleated cells (2×)
